For one compound, EC50 results are on record in article PMC5733700 (Bioorganic & medicinal chemistry, 2017).

Molecules are shown by their SMILES. pEC50: −log10 of the molar value.

One test deals with Loucy cells. Nature of the test: Cytotoxicity. The class given is cell-based. The following applies: Homo sapiens, 120 h, read-out: Cytotoxicity EC50, Loucy.
The subject of a further test is 697 cells. Nature of the test: Cytotoxicity. The class given is cell-based. The conditions noted are these: Homo sapiens, 120 h, read-out: Cytotoxicity EC50, 697.

By pEC50 is commonly meant the EC50 on a negative log10 scale, so that one unit is a factor of ten. Regarding `COc1cc(OC)c2c(=O)[nH]c(-c3cc(C)c(OCCO)c(C)c3)nc2c1` [Compound 3, RVX-208], the pEC50 in the test with Loucy cells and in the test on 697 cells was below 5.30 throughout.
